Columns and labels:
Assay type in all cases: physicochemical
[1] = Light-fastness study (Oxynex ST photostabiliser); conditions: 0.1% vanillin, light box 5000 lux
Experimental: A composition without any photostabiliser was used as a base composition (no photostabiliser). Various amounts of Oxynex ST (2.5%, 5% and 10%) were added to the base composition to determine the photostability or light-fastness of vanillin in the microemulsion formulation. […] However, this problem could be avoided by the addition of a photostabiliser (Oxynex ST).
Method: Each formulation was diluted with water to 0.1% vanillin (as pure) and 5 mL was applied by pipette to a glass petri dish. The dishes were left to stand in a light box fitted with 2×40 W fluorescent daylight bulbs with an illumination intensity of 5000 lux. The dishes were extracted with methanol and made up to 25 mL in a volumetric flask after 3 and 5 days. Samples were then analysed by HPLC.

[2] = Light-fastness study, ratio of Oxynex ST:ascorbic acid; conditions: 0.1% vanillin, 1500 Lux 5 hours per day
Experimental: The formulations used for these experiments are described in TABLE 12. Various ratios of Oxynex ST and ascorbic acid were used in the composition to determine the effect on photostability.
(§1) Method: Formulations were diluted with water to 0.1% vanillin and 5 mL transferred by pipette to a 100 mL crystallising dish. All dishes were placed in a light box containing two 60 cm high efficiency 24 W fluorescent bulbs housed in a canopy to provide bright, full spectrum lighting closely resembling daylight (6400 Kelvin). The dishes were covered with muslin sheets to reduce the intensity of the light to 1500 Lux on a programme of 5 hours per day. At specific time intervals the dishes were extracted and made up to volume with methanol. Samples were analysed by HPLC.

[3] = Light-fastness study, addition of ascorbic acid; conditions: 0.1% vanillin, 1500 Lux 5 hours per day
Experimental: The formulations used for these experiments are described in TABLE 10. Oxynex ST (5%) and Oxynex ST (5%) with ascorbic acid (1%) were added to the composition to determine the effect on photostability.
as §1

Vanillin ([1]; 0 days): 189.36 mg/L
Vanillin ([1]; 5 days): 173.29 mg/L
Vanillin (mg/L) 1 ([2]; 0 days): 201.28 mg/L
Vanillin (mg/L) avg ([2]; 0 days): 200.88 mg/L
Vanillin (mg/L) 1 ([2]; 1 day): 198.02 mg/L
Vanillin (mg/L) 2 ([2]; 1 day): 198.95 mg/L
Vanillin (mg/L) avg ([2]; 1 day): 198.49 mg/L
Vanillin (mg/L) 1 ([2]; 2 days): 198.76 mg/L
Vanillin (mg/L) 2 ([2]; 2 days): 197.78 mg/L
Vanillin (mg/L) avg ([2]; 2 days): 198.27 mg/L
Vanillin (mg/L) 1 ([2]; 3 days): 196.44 mg/L
Vanillin (mg/L) 2 ([2]; 3 days): 195.47 mg/L
Vanillin (mg/L) avg ([2]; 3 days): 195.96 mg/L
Concentration (mg/dish) ([3]; 3 days): 5.64 mg/dish
Loss (%) ([3]; 14 days): 11.07%
Structure (SMILES): COc1cc(C=O)ccc1O [0.1% Vanillin Technical in water, 4-Hydroxy-3-methoxybenzaldehyde]
